# Source: PMC13376213, “Systematic discovery of motif-based interactions of the auxiliary domains of USP family deubiquitinases” (Nature Communications, 2026)
# The list shows a part of the results.
# Target: Ubiquitin carboxyl-terminal hydrolase 20 (UniProt Q9Y2K6)
# Experiment: mass-spectrometry hit list; affinity purification or IP with mass spectrometry
substance,measurement,value
"Phospholipid hydroperoxide glutathione peroxidase GPX4, P36969",listed as a hit,yes
